Source: patent US4863905A, “Renin inhibitors II” (Warner-Lambert Company, priority 1987, dated 1989)
Where two headings read alike, the source gives them in different places.

Amino acid sequences for entries named in this document (tags omitted). Residues count along the entry.
UniProt P00797, 67-406 limits assumed: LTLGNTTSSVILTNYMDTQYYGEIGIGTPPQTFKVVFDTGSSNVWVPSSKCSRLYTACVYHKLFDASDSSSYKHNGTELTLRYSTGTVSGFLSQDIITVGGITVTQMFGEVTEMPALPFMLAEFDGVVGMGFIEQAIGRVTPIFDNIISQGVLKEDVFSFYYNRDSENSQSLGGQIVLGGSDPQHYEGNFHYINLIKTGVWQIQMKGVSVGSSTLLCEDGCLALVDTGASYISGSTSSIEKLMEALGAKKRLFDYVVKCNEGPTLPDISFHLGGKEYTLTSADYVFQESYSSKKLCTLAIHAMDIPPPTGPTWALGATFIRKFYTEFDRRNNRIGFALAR

Target: renin (Homo sapiens, UniProt P00797)
Experiment: in vitro renin inhibitory activity, radioimmunoassay for angiotensin I
Conditions: read-out: Activity IC50, renin incubated two hours at 37° with substrate angiotensinogen, angiotensin I by radioimmunoassay, molar concentration causing 50% inhibition
Protocol: The effectiveness of the aforementioned compound is determined by a test for in vitro renin inhibitory activity. This activity is determined by a standard radioimmunoassay for angiotensin I. In this assay the enzyme, renin, incubated for two hours at 37° in the presence of a substrate, angiotensinogen, generates the product, angiotensin I. Test compounds are added to the incubation mixture. Relative activity is reported as the IC50, which is the molar concentration of test compound causing a 50% inhibition of the renin activity.

An IC50 (tested form: 0.5 CH2Cl2 solvate) of 4.6 µM was found for `CC(C)CC(CC(O)[C@H](CC1CCCCC1)NC(=O)[C@H](Cc1c[nH]cn1)NC(=O)C(Cc1cccc2ccccc12)Cc1cccc2ccccc12)C(=O)NCc1cccc(CN)c1` (stereo partly drawn) in this work.

An IC50 (tested form: 0.6 CH2Cl2 solvate) of 12 µM was found for `NCc1cccc(CNC(=O)CCC(O)[C@H](CC2CCCCC2)NC(=O)[C@H](Cc2c[nH]cn2)NC(=O)C(Cc2cccc3ccccc23)Cc2cccc3ccccc23)c1` (stereo partly drawn) in this work.

An IC50 (tested form: 0.3 CH2Cl2 solvate) of 0.57 µM was found for `CC(C)C[C@H](NC(=O)C[C@H](O)[C@H](CC(C)C)NC(=O)[C@H](Cc1c[nH]cn1)NC(=O)C(Cc1cccc2ccccc12)Cc1cccc2ccccc12)C1CC(Cc2ccccc2)C(=O)O1` (stereo partly drawn) in this work.
